## Antibody variant affinities, Ab-91 heavy chain, assay 2

Source: Engelhart et al. 2022 (doi:10.1038/s41597-022-01779-4), MIT Lincoln Laboratory and A-Alpha Bio; data file from the FLAb repository.

Binding partner: SARS-CoV-2 spike HR2 peptide, sequence PDVDLGDISGINAS.

The variants keep the light chain, the linker and the frameworks of Ab-91 (scFv order VL, the linker GGGGSGGGGSGGGGS, VH).
VL: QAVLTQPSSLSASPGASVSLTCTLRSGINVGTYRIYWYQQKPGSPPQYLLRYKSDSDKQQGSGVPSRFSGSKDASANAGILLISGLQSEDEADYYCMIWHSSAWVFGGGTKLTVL
VH: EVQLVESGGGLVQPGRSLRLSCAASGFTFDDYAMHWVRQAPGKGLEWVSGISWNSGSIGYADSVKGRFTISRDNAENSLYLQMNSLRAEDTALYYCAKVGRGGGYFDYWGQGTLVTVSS

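The parent was found by panning a naive human phage display library on the peptide. Library AAYL51 holds single substitutions and randomly drawn double and triple substitutions in the CDRs. The scFvs were displayed on barcoded MATa yeast, the peptide on MATalpha yeast. Binding brings cells together so that they mate, and sequencing counts the barcode pairs among the diploids. Scores were corrected for input abundance and mapped to Kd with protein pairs of known affinity run in the same pool. Mating was done three times.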

Variants are written as CDR1, CDR2 and CDR3 of the heavy chain (limits as in the source). Parent: GFTFDDYAMH, GISWNSGSIGYADSVK, VGRGGGYFDY. Values are log10 of the apparent Kd in nM; lower means stronger binding. Averages over replicates are reported, and they cover detected replicates only. A pair that was not seen in that replicate is written "ND"; this usually means weak binding, but a binder can also be missed. Parent in this assay: reference entry 1.86, copy in this library 0.88. Background: pairings of library AAYL51 with three empty control strains gave a value in 21% of cases (median 4.54, 5th percentile 3.26). Values in that range, when seen in few replicates, are hard to tell from nonspecific mating. Also given: how often the same scFv was detected with the empty control strains, with their mean in brackets.

CDR-H1	CDR-H2	CDR-H3	log10 Kd (nM) by replicate	mean, log10 nM	signal with controls
GFTFDDWAMH	YIPWNSGSIGYADSVK	VGRGGGYFDY	ND ND ND	ND	0/9
GFTFDDYAMH	GIPWNSGRIGYADSVK	VGRGGGYFDY	5.41 ND ND	5.41	1/9 (3.19)
GFTFDDYAMH	GISWNSGSIGYADSVY	VGRGGGRMDY	ND ND ND	ND	0/9
GFTFDPYAMH	GICWNSGSIGYADSVK	VGRGGGYFIY	ND 6.12 ND	6.12	1/9 (4.47)
GFTFDDYAMV	GYSWESGSIGYADSVK	VGRGGGYFDY	ND 6.47 ND	6.47	6/9 (5.52)
GFTFYDYAMH	EISWNSGSIGYADSVK	VGRGGGYFHY	3.77 ND ND	3.77	0/9
GFTFDDYAMH	GVSWNSGSILYADSVK	VWRGGGYFDY	ND ND 5.31	5.31	6/9 (4.49)
GFTFDDYAMH	GISWNSGSHGYADSVH	VGRGGTYFDY	4.05 ND ND	4.05	1/9 (3.29)
GFTFDDYAMH	GISWNSGSIGYADSVK	EGRGGWYADY	ND ND ND	ND	1/9 (4.10)
GEHFDDYAMH	GISWNSGSIGYADRVK	VGRGGGYFDY	3.55 3.04 3.59	3.39	3/9 (5.19)
GFTFDDYMMH	GISWNSGTIGYADSVK	VGRGGGYFDY	4.80 ND ND	4.80	0/9
GFTFDDYAMH	GISWTSGIIGYADSVK	VGRGSGYFDY	5.39 3.61 ND	4.50	1/9 (4.78)
GFTRVDYAMH	GISWNSGSIGYAWSVK	VGRGGGYFDY	ND ND ND	ND	2/9 (3.93)
GFTFDDYAMH	GISWNSGSTGYADSVK	VGRGRGEFDY	4.26 5.84 4.72	4.94	7/9 (4.91)
GFTFDDYAMH	GISWNSGSIGRADSVK	VGRGIGKFDY	ND 5.43 ND	5.43	2/9 (5.17)
GFTFDDYANQ	GISWNSGSIGYADSVK	VGRGGGYFDC	ND ND ND	ND	0/9
GFTTDDYAMH	GISWNSGSIGYVDSVK	VGRGGGGFDY	4.27 ND ND	4.27	4/9 (4.23)
EFTFDDYAGH	GISWNDGSIGYADSVK	VGRGGGYFDY	ND ND ND	ND	0/9
GFTFDSYAMH	GISWNSGSIGYSDSVK	WGRGGGYFDY	4.53 4.72 5.19	4.81	3/9 (4.34)
GFTFDDYAMH	GISWNIGSIGYADSCA	VGRGGGYFDY	5.22 ND 6.07	5.64	5/9 (5.60)
GFTFDDYAMH	GISWNSGSIGYAQSDK	VGRGTGYFDY	3.69 ND ND	3.69	1/9 (3.62)
GFTFDDRAMH	GISWNSKSIVYADSVK	VGRGGGYFDY	ND ND ND	ND	0/9
GFTFDDYAMH	GGSWCSGSIGYADSVK	VGRGGGEFDY	5.28 4.44 5.25	4.99	6/9 (4.83)
GFTFDDYRMK	GISWNSGSIGYADSVK	VGRGGGYFDY	6.35 5.74 5.91	6.00	3/9 (5.98)
GITFDDYAMH	GISWNSGSIGYADSVK	VGREGGYRDY	3.82 4.22 4.63	4.22	4/9 (3.90)
GFTFDDYAEH	GISWNSGSIGYADSVK	FGRGGGYFDY	4.72 ND ND	4.72	2/9 (5.11)
GFTRDDYAMQ	GISWNSGSIGYADSHK	VGRGGGYFDY	3.81 ND 4.33	4.07	2/9 (3.96)
GFTADDYAMH	GISWNSNSIGYADSVK	VGRGGSYFDY	ND 4.34 ND	4.34	2/9 (4.25)
GFTFDDYAMH	GISWWSGSIGGADSVL	VGRGGGYFDY	ND ND ND	ND	0/9
TFTFDDYAME	GISWNSGSISYADSVK	VGRGGGYFDY	ND ND ND	ND	0/9
GFTFDDYAMQ	GISWASGSDGYADSVK	VGRGGGYFDY	6.06 ND ND	6.06	2/9 (4.53)
GFTFDKYAMH	GLSWNSGSIGYADSVK	RGRGGGYFDY	1.11 1.07 0.73	0.97	0/9
GITFDDYAMH	GISWNSGSIDYADSVK	VGRGWGYFDY	6.54 ND 5.13	5.84	2/9 (3.90)